According to patent US20220378791A1, “JAK1 INHIBITORS FOR THE TREATMENT OF MYELODYSPLASTIC SYNDROMES” (Incyte Corporation, priority 2014, published 2022):
pIC50: −log10 of the molar value.

Protein sequences, listed by entry. Tags and fused reporters are not part of them. Residues count along the entry.
UniProt P23458, 849-1154: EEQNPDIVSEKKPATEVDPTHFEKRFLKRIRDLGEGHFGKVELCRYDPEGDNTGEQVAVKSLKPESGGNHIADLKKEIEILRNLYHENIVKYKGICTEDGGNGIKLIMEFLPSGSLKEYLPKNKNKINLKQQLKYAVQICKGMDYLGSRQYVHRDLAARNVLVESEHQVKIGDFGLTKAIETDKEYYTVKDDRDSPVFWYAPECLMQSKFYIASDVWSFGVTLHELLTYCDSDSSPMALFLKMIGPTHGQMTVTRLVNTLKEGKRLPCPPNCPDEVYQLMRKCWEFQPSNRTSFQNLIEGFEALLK

Target: T1, human JAK1 (a.a. 837-1142) (Homo sapiens, UniProt P23458)
T1 construct: human JAK1 (a.a. 837-1142); His tag (N); made in house; host or cells: insect cells (baculovirus)
Assay: In vitro JAK kinase assay (HTRF), JAK1
Format: biochemical
Conditions: 1 mM ATP
Experimental: Compounds herein were tested for inhibitory activity of JAK targets according to the following in vitro assay described in Park et al., Analytical Biochemistry 1999, 269, 94-104. The catalytic domains of human JAK1 (a.a. 837-1142), JAK2 (a.a. 828-1132) and JAK3 (a.a. 781-1124) with an N-terminal His tag were expressed using baculovirus in insect cells and purified. The catalytic activity of JAK1, JAK2 or JAK3 was assayed by measuring the phosphorylation of a biotinylated peptide. The phosphorylated peptide was detected by homogenous time resolved fluorescence (HTRF). […] Reactions were carried out at room temperature for 1 hour and then stopped with 20 μL 45 mM EDTA, 300 nM SA-APC, 6 nM Eu-Py20 in assay buffer (Perkin Elmer, Boston, Mass.). Binding to the Europium labeled antibody took place for 40 minutes and HTRF signal was measured on a Fusion plate reader (Perkin Elmer, Boston, Mass.).

pIC50: > 8.00
SMILES: CN(C)Cc1cc(F)cc(OC2CCN(CC(CC#N)n3cc(-c4ncnc5[nH]ccc45)cn3)CC2)c1 (single isomer, unassigned) [Example 12, 4-(4-{3-[(Dimethylamino)methyl]-5-fluorophenoxy}piperidin-1-yl)-3-[4-(7H-pyrrolo[2,3-d]pyrimidin-4-yl)-1H-pyrazol-1-yl]butanenitrile]
